For data set [1] the following is noted: rats; cited from earlier work.
Data set [2] can be described thus: pharmacokinetic study after oral administration in rats. Type of data set: in vivo, rat. The following applies: single oral dose, ECH alone and combinations.
Data set [3] is described as follows: single-pass intestinal perfusion model in situ.
Data set [4] is described as follows: stability of ECH in K-R buffer and intestinal perfusate. Type of data set: in vitro ADME, rat. The settings on record: K-R buffer solution and intestinal perfusate, 37°C, 2-hour incubation.
Data set [5] can be described thus: everted gut sac model in vitro.
Data set [6] is described as follows: nonspecific binding of ECH to intestinal walls and tubes. The following applies: 2-h incubation. Type of data set: in vitro ADME, rat.
Setting [7] is: ECH 0.09 mg/mL, duodenum, jejunum, ileum versus colon.

Regarding Echinacoside, in data set [1], the oral bioavailability is recorded as 0.83%. The pharmacokinetic model fit result in data set [2] is “two-compartment model”. For the same substance, the “site dependence of absorption (Ka and Peff)” value in data set [3] (setting [7]) is listed as “higher absorption in small intestine segments compared to colon segment”. Further, the “highest permeability (Peff) in the whole intestine” value in data set [3] (in situ perfusion) is 3.23 ×10⁻⁶ cm/s. Also, the “effective permeability coefficient (Peff)” value in data set [3] (in situ perfusion, range over the study) lay within 0.83 to 3.23 ×10⁻⁶ cm/s. Also, the “concentration above which saturable absorption appeared” value in data set [3] (jejunum, ECH 0.03, 0.09, 0.27 mg/mL) is given as “higher than 0.09 mg/mL”. Also, in data set [4], the stability entry is reported as “stable”. For the same substance, the “site dependence of absorption (F and Papp)” value in data set [5] (setting [7]) was “mostly absorbed in the small intestine rather than the colon”. Moreover, the “apparent permeability coefficient (Papp)” value in data set [5] (everted gut sac, range over the study) is 2.99 to 9.86 ×10⁻⁶ cm/s. Moreover, the “nonspecific binding to intestinal wall and tubes” value in data set [6] was “no ECH was absorbed by intestinal wall and tubes”.

(Values after publication PMC4544722 (Drug Design, Development and Therapy, 2015).)
